pIC50: −log10 of the molar value.
What was measured:
[1] = target: CYP2C19 (Homo sapiens, UniProt P33261); assay: CYP2C19 inhibition; conditions: safety profiling
[2] = Plasma stability, rat
[3] = system: STAT3 Tyr705 and Ser727 phosphorylation; assay: Western blot of STAT3 phosphorylation in TNBC and PTCL cells; conditions: MDA-MB-231 and SUDHL-1 cells
Protocol: Pancreatic cancer cells were lysed in RIPA buffer supplemented with 1 mM phenylmethylsulfonyl fluoride (PMSF), a proteinase inhibitor cocktail and a phosphatase inhibitor cocktail (Sigma). Lysates were separated by 8–12% sodium dodecyl sulfate-polyacrylamide gel electrophoresis (SDS-PAGE) and transferred to nitrocellulose. The blots were probed with specific antibodies followed by a secondary antibody, and then membranes were examined by the LI-COR Odyssey infrared imaging system (LI-COR Biotechnology, Lincoln NE). The antibodies used and their technical information are listed in Supplementary Table S2.

Amino acid sequences for entries named in this document (tags omitted). Residues count along the entry.
UniProt P33261, whole entry: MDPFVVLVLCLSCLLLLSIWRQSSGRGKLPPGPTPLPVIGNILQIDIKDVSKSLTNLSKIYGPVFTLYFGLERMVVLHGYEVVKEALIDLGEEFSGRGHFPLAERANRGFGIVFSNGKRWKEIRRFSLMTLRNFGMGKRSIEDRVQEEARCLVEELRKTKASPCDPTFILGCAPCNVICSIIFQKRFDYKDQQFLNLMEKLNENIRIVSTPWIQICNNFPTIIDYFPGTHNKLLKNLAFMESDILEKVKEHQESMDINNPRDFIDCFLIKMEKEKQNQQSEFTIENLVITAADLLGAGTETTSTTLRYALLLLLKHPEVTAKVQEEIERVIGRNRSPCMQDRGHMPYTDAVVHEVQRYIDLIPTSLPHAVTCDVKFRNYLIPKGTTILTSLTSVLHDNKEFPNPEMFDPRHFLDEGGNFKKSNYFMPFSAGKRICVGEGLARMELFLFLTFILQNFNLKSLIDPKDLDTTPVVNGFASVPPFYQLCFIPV
UniProt P10635, whole entry: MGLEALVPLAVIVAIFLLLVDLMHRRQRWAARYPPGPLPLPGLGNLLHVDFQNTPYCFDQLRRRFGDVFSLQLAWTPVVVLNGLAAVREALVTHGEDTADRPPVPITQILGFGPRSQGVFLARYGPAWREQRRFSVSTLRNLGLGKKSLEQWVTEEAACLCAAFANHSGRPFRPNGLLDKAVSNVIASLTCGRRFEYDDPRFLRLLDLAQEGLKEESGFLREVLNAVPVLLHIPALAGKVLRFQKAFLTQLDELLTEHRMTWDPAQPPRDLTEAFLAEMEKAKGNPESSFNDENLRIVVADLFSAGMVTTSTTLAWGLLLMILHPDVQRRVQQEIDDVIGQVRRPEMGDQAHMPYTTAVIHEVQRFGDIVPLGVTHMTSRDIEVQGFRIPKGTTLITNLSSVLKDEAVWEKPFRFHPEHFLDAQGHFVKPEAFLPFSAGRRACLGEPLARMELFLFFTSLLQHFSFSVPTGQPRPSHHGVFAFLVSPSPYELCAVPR
UniProt P40763, 586-685 E638A limits assumed: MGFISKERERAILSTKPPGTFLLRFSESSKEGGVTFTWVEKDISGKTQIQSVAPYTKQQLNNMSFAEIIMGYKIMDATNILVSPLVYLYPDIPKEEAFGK
UniProt P40763, 586-685 S636A limits assumed: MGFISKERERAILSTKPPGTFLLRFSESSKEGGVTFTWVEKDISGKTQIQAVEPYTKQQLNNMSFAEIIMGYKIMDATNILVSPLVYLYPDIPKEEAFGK
UniProt Q12809, whole entry: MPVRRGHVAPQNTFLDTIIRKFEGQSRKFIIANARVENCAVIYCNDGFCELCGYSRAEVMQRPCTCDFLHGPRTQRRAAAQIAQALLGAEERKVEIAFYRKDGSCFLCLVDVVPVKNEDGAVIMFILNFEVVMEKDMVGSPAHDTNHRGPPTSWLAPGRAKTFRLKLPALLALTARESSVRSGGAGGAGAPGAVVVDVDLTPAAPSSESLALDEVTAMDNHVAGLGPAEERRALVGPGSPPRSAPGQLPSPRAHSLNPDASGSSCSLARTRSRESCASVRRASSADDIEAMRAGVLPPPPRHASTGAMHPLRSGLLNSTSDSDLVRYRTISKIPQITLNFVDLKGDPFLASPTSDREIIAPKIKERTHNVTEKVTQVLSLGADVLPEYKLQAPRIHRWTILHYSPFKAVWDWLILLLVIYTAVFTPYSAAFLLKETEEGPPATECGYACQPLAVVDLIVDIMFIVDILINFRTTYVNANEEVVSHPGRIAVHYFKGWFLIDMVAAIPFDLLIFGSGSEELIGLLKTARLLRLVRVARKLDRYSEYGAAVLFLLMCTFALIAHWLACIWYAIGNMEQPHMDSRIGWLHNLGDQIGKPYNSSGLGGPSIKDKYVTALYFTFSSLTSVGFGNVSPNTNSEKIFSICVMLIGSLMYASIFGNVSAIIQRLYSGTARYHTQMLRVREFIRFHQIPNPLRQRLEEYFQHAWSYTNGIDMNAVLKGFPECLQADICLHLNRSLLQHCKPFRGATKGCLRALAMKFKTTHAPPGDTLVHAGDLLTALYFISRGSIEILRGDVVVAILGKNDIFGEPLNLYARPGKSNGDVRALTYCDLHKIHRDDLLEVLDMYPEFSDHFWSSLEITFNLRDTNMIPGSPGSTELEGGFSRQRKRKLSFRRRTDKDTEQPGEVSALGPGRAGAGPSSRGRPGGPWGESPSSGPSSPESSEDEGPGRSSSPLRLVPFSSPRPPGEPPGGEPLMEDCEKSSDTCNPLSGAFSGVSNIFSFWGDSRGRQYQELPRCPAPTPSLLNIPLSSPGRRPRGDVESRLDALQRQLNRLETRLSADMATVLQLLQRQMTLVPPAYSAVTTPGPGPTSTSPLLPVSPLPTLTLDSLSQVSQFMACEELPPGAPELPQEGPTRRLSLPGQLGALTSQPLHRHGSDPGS

[4] = target: CYP2D6 (Homo sapiens, UniProt P10635); assay: CYP2D6 inhibition; conditions: safety profiling
[5] = Plasma stability, dog
[6] = target: SH2-E638A (Homo sapiens, UniProt P40763, E638A); assay: MST binding to STAT3-SH2 mutant E638A
Text: (§1) STAT1 (amino acid residues 127–716), STAT2 (amino acid residues 138–702), STAT3 (amino acid residues 127–722), STAT4 (amino acid residues 133–705), STAT5B (amino acid residues 136–703) and STAT6 (amino acid residues 113–658) were cloned into the pET28A vector. STAT3-SH2 (amino acid residues 586–685) and the mutants of the STAT3-SH2 produced by site-directed mutagenesis were also cloned into the pET28A vector. All recombinant human fusion proteins were expressed in E. coli BL21 (DE3). Then, according to different induction conditions, the protein expression was induced. During the induction of the expression of STAT3-SH2 and all the mutants, STAT1, STAT2, STAT3 and STAT6, when the OD value reached about 0.6–1.0, the E. coli was transferred to 22 °C and 0.5 mM Isopropyl β-D-1-thiogalactopyranoside (IPTG) was added. For the expression of STAT4 and STAT5B when the OD value reached about 0.5–0.6, the E. coli was transferred to 30 °C for 2.5–3 h and 0.2 mM IPTG was added.
(§2) Microscale thermophoresis (MST) was conducted as previously described.[28] Binding affinities of YY002, Stattic against purified STAT3^127–722 and STAT3-SH2 protein or YY002 against STAT3-SH2 WT and mutants were measured by a Monolith NT.115 (Nanotemper Technologies). […] The samples were then loaded into premium capillaries (NanoTemper Technologies) and measured at 25 °C using 20%–40% LED power and medium MST power. […]

[7] = system: SUDHL-1 tumor; assay: SUDHL-1 xenograft model
[8] = system: STAT3 negative PC3 cells; assay: Colony formation, PC3 cells
Protocol: Tumor cells were seeded into 6-well plates, allowing attachment overnight. The test compounds were added at indicated concentrations for 1 week of treatment. Then colonies were fixed by 4% paraformaldehyde (PFA) and then stained with 0.2% crystal violet. Images were photographed using a digital camera, and colonies were quantified by manual counting.

[9] = Liver microsome stability, rat
[10] = system: Capan-2 cells; assay: Capan-2 proliferation (MTS), comparison with STAT3 inhibitors; conditions: vs C188-9, BP-1–102, Stattic, FLLL32, AZD1480, BBI-608
Protocol: acute myeloid leukemia cell line (KG1), human atrial fibroblast (HAF), human […]
umbilical vein endothelial cell line (HUVEC), human embryonic kidney cell line […]
(HEK293T) was purchased from Cell Bank/Stem Cell Bank of the Chinese Academy […]
of Sciences and American Type Culture Collection (ATCC). Capan-2, PANC-1 and […]
HEK293T were cultured in Dulbecco’s Modified Eagle’s Medium (DMEM) supplemented with 10% fetal bovine serum (FBS) and 1% penicillin-streptomycin, and […]
additional 2.5% horse serum was added in the medium of MIA PaCa-2; AsPC-1, BxPC- […]
3, PC3 and KG1 were cultured in RPMI 1640 medium supplemented with 10%-20% […]
FBS and 1% penicillin-streptomycin; HPAC was cultured in Dulbecco's Modified […]
Eagle Medium/Nutrient Mixture F-12 medium (DMEM/F-12), SW1990 was cultured […]
in Leibovitz's L-15 Medium, CFPAC-1 was cultured in Iscove's Modified Dulbecco's […]
Medium. HUVEC was cultured in Ham's F-12K supplemented with 0.1mg/mL Heparin, […]
0.03-0.05mg/mL ECGs, 10% FBS and 1% penicillin-streptomycin. HAF was cultured […]
in Fibroblast Medium supplemented with 10% FBS, 1% Fibroblast Growth Supplement […]
(FGS) and 1% penicillin-streptomycin.
Cell viability was measured by MTS assay following the manufacturer ’s instructions.
Briefly, cancer cells or normal cells were seeded in 96-well plates at appropriate […]

[11] = system: MIA PaCa-2 tumor; assay: MIA PaCa-2 xenograft model; conditions: orally
[12] = system: complex I; assay: Electron transfer chain experiment, Seahorse; conditions: Capan-2 cells, 50 nM
[13] = target: SH2-S636A (Homo sapiens, UniProt P40763, S636A); assay: MST binding to STAT3-SH2 mutant S636A
Text: as §1, §2

[14] = target: hERG (Homo sapiens, UniProt Q12809); assay: hERG inhibition (safety panel); conditions: safety profiling

Question: What does the source list for Cn1c(C(=O)N2CCN(Cc3ccc(OCC(F)(F)F)cc3)CC2)cc2ccc(Oc3cnc(-c4nc(-c5ccc(C(F)(F)F)cc5)no4)cn3)cc21?
Answer: pIC50 [1]: < 4.60; Plasma t1/2 [2]: > 2 h; Inhibition of STAT3 phosphorylation [3]: potently inhibited STAT3 Tyr705 and Ser727 phosphorylation; pIC50 [4]: < 4.60; Plasma t1/2 [5]: > 2 h; Binding affinities (nM) [6]: did not bind; Antitumor efficacy compared to BBI608 ([7]; PTCL model, oral administration): superior antitumor efficacy compared to BBI608; Antitumor efficacy in vivo ([7]; orally): significant regression; Effect on colony formation [8]: little impact; Liver Microsomes t1/2 [9]: > 2 h; Antitumor activity, fold better than tested STAT3 inhibitors [10]: approximately 1000 fold; TGI rate ([11]; 5 mg/kg): 85.06 ± 9.28%; TGI rate ([11]; 20 mg/kg): 61.24 ± 9.68%; Electron transfer chain complex function [12]: selectively impaired complex I functions; Binding affinities (nM) [13]: did not bind; pIC50 [14]: < 4.60
